For one assay, the target named is T1, S1PR2 (Homo sapiens, UniProt O95136).
T1 construct: split-luciferase (NanoBiT) fragment on the receptor; expressed in transfected cells; host or cells: HEK293A
Description: Nanobit analysis of S1PR2 coupling to β-arrestin. Format: cell-based. As to conditions: compared to ApoM-Fc-S1P or ApoA1-ApoM-S1P. The text has this:
(§1) The Nano-bit system, which employs split luciferase interactions of GPCRs with betaarrestin or specific Ga/bg complexes in response to GPCR activation (Inoue et al, 2019; Hisano et al, 2019) was used to characterize ApoA1-ApoM nanoparticles containing S1P. Briefly, HEK293A cells maintained in DMEM (GIBCO) supplemented with 10% FCS and Pen-Strep, were dispersed into 6 well plates and allowed to adhere overnight. For functional studies, cells were transfected with appropriate combinations of reporter plasmids. S1PR1-Small bit luciferase and Beta-arrestin-large bit luciferase fusion proteins or Gαi-small bit luciferase combined with Gβ1 and Gγ1-Large bit luciferase were employed as described previously (Hisano et al, 2019). After 24 hrs, cells were harvested, resuspended with the luciferase substrate Coelenterazine (Caymen Chem; 50 μM), dispersed into white opaque-bottom 96-well plates (Greiner) and maintained at RT for 2 hours to quench background. S1P containing samples were added by multi-channel pipetting and the plate was immediately analyzed for fluorescence at 470 nm for 30 minutes in a SpectraMax L 96-well plate reader (Molecular Devices). Data was integrated as described (Hisano et al, 2019).

By UniProt entry, the sequences of proteins in these tests, tags left out.
UniProt O95136, whole entry, species assumed: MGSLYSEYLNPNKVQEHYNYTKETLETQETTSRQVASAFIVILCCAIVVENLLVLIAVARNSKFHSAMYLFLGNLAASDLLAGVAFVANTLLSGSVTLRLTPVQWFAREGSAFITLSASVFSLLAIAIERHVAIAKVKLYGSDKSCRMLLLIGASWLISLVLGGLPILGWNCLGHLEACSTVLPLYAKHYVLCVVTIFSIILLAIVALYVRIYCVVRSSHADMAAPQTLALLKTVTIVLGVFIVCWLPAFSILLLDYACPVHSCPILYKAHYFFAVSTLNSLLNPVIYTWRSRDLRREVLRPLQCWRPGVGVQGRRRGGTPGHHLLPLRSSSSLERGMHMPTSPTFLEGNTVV
UniProt P21453, whole entry, species assumed: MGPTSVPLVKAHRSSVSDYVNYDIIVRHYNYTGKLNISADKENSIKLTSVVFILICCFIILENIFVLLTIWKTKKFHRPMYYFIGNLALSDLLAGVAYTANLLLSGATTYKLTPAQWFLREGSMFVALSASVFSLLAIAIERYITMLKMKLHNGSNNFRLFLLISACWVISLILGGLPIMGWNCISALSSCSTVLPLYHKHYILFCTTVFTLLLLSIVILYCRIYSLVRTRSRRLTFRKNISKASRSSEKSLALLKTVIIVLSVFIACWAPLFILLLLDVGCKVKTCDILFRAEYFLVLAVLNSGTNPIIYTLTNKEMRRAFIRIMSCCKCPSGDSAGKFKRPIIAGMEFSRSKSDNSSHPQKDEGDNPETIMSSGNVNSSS
UniProt Q99500, whole entry, species assumed: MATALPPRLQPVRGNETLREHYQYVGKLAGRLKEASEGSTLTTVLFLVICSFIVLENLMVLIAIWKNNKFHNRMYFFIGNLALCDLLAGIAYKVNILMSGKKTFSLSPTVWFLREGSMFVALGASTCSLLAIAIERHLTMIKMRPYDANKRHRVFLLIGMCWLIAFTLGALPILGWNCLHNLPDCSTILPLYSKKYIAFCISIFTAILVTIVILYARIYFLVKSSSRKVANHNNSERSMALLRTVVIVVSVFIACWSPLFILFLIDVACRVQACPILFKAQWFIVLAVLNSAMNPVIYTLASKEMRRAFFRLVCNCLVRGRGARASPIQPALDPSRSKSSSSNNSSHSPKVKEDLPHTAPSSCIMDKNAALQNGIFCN

The next assay concerns NF-κB. Description: TNFα-induced NF-κB luciferase reporter assay in HMEC. Format: cell-based, human. The conditions noted are these: 25-400 μg/ml. As to the method: TNFα-dependent NF-κB signaling was determined by using an NFκB-Luciferase based reporter assay system (pGL4.32[luc2P/NF-κB-RE/Hygro]; Promega). A stable NFκB reporter cell line in human microvascular endothelial cells (HMEC-1; ATCC) was created. HMEC were maintained in 10% FCS/Pen-Strep MCDB media supplemented with 2 mM L-Glutamine (Sigma), EGF (2 ng/ml; R&D systems) and Hydrocortisone (1 ng/ml; Sigma). Using TNFα (10 ng/ml; R&D Systems), both dose and temporal analyses were performed to establish optimal induction of the Luciferase response (Data not shown). The 5×10^5 reporter cells were distributed to 12 well plates and allowed to adhere for 24 hours. Media was replaced with MCDB media supplemented with 1% FCS, L-Glutamine. Cells were pre-treated with either media, ApoA1 (Purified Human ApoA1; Sigma), ApoA1-ApoM, ApoA1-ApoM-S1P, ApoM-Fc-S1P, or Albumin-S1P for 10 minutes and 2 ng/ml of TNFα. Samples were extracted using cell lysis buffers (Promega), luciferin substrate was added and the plates were measured for […] at 470 nm for 8-15 minutes in a SpectraMax L 96-well plate reader (Molecular Devices).
(In general: Reporter assays use an easily measured gene product as a stand-in for the process of interest.)

The target in a further assay is T2, S1PR1 (Homo sapiens, UniProt P21453).
T2 construct: expressed in transfected cells; host or cells: HEK293A
As to the kind of experiment: Nanobit analysis of S1PR1 activation (Gαi and β-arrestin coupling). Format: cell-based. As to conditions: 4-log range of ligand, 0.32 nM-1 μM S1P.
Text: as §1

In another assay the target is T3, S1PR3 (Homo sapiens, UniProt Q99500).
T3 construct: split-luciferase (NanoBiT) fragment on the receptor; expressed in transfected cells; host or cells: HEK293A
As to the kind of experiment: Nanobit analysis of S1PR3 coupling to β-arrestin. Format: cell-based. As to conditions: compared to ApoM-Fc-S1P or ApoA1-ApoM-S1P.
Text: as §1

On to “Albumin-S1P: S1P loaded onto fatty acid free Albumin”, for which the “maximum stimulation of β-arrestin activation via S1PR2” value in the assay with S1PR2 is listed as “Greater maximum stimulation”. In addition, the “inhibition of TNFα induced NF-κB activity (qualitative)” value with NF-κB is given as “did not inhibit”. Further, in the assay with S1PR1, the “S1PR1-dependent activation of Gai” value is recorded as “similar” and the S1PR1 b-arrestin receptor-coupling entry is listed as “similar”. Moreover, the “maximum stimulation of β-arrestin activation via S1PR3” value with S1PR3 is recorded as “Greater maximum stimulation”.

These data come from US20250042974A1, “LIPID MEDIATOR CHAPERONE AND USES THEREOF” (The Children's Medical Center Corporation, priority 2021, published 2025).
